Measured values as given in BindingDB's records for PubMed 2867217 (Smith Kline & French Laboratories, 1986).
Values joined by “and” are separate entries in the source; they are usually repeats but may differ in a detail not shown here. Identical values can stand only once.

Target: T1, Alpha-1A adrenergic receptor (Rattus norvegicus, UniProt P43140)
T1 sequence (P43140 whole entry): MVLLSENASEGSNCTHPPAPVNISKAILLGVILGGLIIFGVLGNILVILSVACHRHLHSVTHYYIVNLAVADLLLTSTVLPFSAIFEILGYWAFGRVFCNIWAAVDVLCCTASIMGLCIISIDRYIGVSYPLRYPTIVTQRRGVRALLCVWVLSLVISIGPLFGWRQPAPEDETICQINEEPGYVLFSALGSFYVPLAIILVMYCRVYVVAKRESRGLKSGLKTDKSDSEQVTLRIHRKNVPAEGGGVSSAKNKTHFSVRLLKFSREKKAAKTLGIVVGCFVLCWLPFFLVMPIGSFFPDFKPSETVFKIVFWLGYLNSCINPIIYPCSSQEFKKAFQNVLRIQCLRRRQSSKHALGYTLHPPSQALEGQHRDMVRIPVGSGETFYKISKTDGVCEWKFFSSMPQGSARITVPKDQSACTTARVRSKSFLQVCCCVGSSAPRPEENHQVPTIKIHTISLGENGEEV

With `COC(=O)[C@@H]1[C@H]2C[C@H]3c4[nH]c5ccccc5c4CCN3C[C@@H]2CC[C@@H]1O` [yohimbic acid methyl ester] the Ki was 562 nM and 263 nM.
